# Results: patent publication US20240116986A1, “FUSION PEPTIDES CONTAINING DIMERIC ALPHA-HELICES, PEPTIDE-MOLECULARCONJUGATES CONTAINING THE SAME AND NUCLEIC ACID DELIVERY COMPOSITIONSCONTAINING THE SAME” (Artprobio Co., Ltd., priority 2022, published 2024)
# Conditions: nanostructure, charge ratio (+/−) 0.25, 20° C.
substance,measurement,value
Glucose-GS-AELAALEAELAALE-(Ahx)2-K-(Ahx)2-KLAALKAKLAALKAG-K(^Nglucose)-NH2 [SAB-g3],helicity after binding to the EGFP mRNA,0.935
